Binding of CDR-mutated scFvs to a peptide of the spike HR2 region

Source: Engelhart et al. 2022 (doi:10.1038/s41597-022-01779-4), MIT Lincoln Laboratory and A-Alpha Bio; data file from the FLAb repository.

Target: peptide PDVDLGDISGINAS, taken from heptad repeat 2 (HR2) of SARS-CoV-2 spike.

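The starting antibody came from a phage panning campaign against this peptide. Library AAYL52 holds single substitutions and randomly drawn double and triple substitutions in the CDRs. The scFvs were displayed on barcoded MATa yeast, the peptide on MATalpha yeast. After mating in shaken culture at 30 °C for 16 h, diploids were selected and their barcode pairs sequenced. Read counts were normalised to the haploid input and turned into Kd by a linear fit to BCL2-family pairs of known affinity, for each replicate. There are three technical replicates.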

Parent: Ab-95, a human scFv built as VH, three GGGGS repeats, VL. Only the CDRs of the light chain vary.
VH: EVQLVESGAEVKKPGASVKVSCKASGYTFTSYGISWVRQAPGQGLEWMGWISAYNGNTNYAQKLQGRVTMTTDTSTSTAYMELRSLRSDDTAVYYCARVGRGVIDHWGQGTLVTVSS
VL: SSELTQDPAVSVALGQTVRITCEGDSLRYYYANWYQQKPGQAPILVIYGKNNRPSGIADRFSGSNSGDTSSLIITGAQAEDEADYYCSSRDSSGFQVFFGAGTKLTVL

Variants are written as CDR1, CDR2 and CDR3 of the light chain (limits as in the source). Parent: EGDSLRYYYAN, GKNNRPS, SSRDSSGFQVF.
Kd is apparent (estimated from mating counts) and averaged on the log scale over replicates with a signal. Smaller is tighter.
"no signal" means that the variant was in the library but no mating with the target was seen in any replicate; the authors take this as a sign of poor binding, and no number exists.
In this assay the parent's reference entry averaged 200 nM; its copy inside this library read 180 nM.

{"CDR-L1": "EGDSLRYYYAN", "CDR-L2": "GKWVRPY", "CDR-L3": "SSRDSSGFQVF", "apparent Kd": "83 µM", "replicates with signal": "2/3"}
{"CDR-L1": "EGDSLRYLSAN", "CDR-L2": "GKNNRPS", "CDR-L3": "SSRDSSGFQVN", "apparent Kd": "320 nM", "replicates with signal": "3/3"}
{"CDR-L1": "EGDSLRYYYAN", "CDR-L2": "GKPNHPS", "CDR-L3": "MSRDSSGFQVF", "apparent Kd": "7.6 µM", "replicates with signal": "2/3"}
{"CDR-L1": "ERDSLSYYYAN", "CDR-L2": "GKNNRPS", "CDR-L3": "SSRDSRGFQVF", "apparent Kd": "4.5 µM", "replicates with signal": "2/3"}
{"CDR-L1": "EGDSLRYYYAN", "CDR-L2": "GKNNRPS", "CDR-L3": "SSRDESGGMVF", "apparent Kd": "2.2 µM", "replicates with signal": "1/3"}
{"CDR-L1": "EGDSLRYYYAN", "CDR-L2": "GNNNRPS", "CDR-L3": "SSRDSRGFQPF", "apparent Kd": "480 nM", "replicates with signal": "3/3"}
{"CDR-L1": "EGDWLRYYYAN", "CDR-L2": "GKNNRPS", "CDR-L3": "SSMDSSQFQVF", "apparent Kd": "7.4 µM", "replicates with signal": "3/3"}
{"CDR-L1": "CGDSLRYYYAN", "CDR-L2": "GKNNRPS", "CDR-L3": "SSRDSSRFQVF", "apparent Kd": "460 nM", "replicates with signal": "2/3"}
{"CDR-L1": "EGDSLRKYNAN", "CDR-L2": "GKKNRPS", "CDR-L3": "SSRDSSGFQVF", "apparent Kd": "1.8 µM", "replicates with signal": "3/3"}
{"CDR-L1": "EGDSLRYYYWN", "CDR-L2": "GKNNRKS", "CDR-L3": "SSRDSYGFQVF", "apparent Kd": "290 µM", "replicates with signal": "1/3"}
{"CDR-L1": "EGDSLRHYYAN", "CDR-L2": "GKNNRGS", "CDR-L3": "SSRDSSGFQVF", "apparent Kd": "69 nM", "replicates with signal": "3/3"}
{"CDR-L1": "EKDSLFYYYAN", "CDR-L2": "GKNNRPS", "CDR-L3": "MSRDSSGFQVF", "apparent Kd": "890 nM", "replicates with signal": "2/3"}
{"CDR-L1": "EGDSLRYYYAN", "CDR-L2": "GLNNRPS", "CDR-L3": "SMRDSSGFQCF", "apparent Kd": "2.7 µM", "replicates with signal": "1/3"}
{"CDR-L1": "EGDYLRYYYAN", "CDR-L2": "GKNNRPS", "CDR-L3": "SSRDLSGFDVF", "apparent Kd": "18 µM", "replicates with signal": "2/3"}
{"CDR-L1": "EGDSLKYYSAN", "CDR-L2": "GKNNRPS", "CDR-L3": "SSRDSSGLQVF", "apparent Kd": "250 nM", "replicates with signal": "3/3"}
{"CDR-L1": "EGDCLRYYYAN", "CDR-L2": "GKNWRPS", "CDR-L3": "SSHDSSGFQVF", "apparent Kd": "2.2 µM", "replicates with signal": "1/3"}
{"CDR-L1": "EGDFLRFYYAN", "CDR-L2": "TKNNRPS", "CDR-L3": "SSRDSSGFQVF", "apparent Kd": "17 µM", "replicates with signal": "1/3"}
{"CDR-L1": "EGDSLRYYQAN", "CDR-L2": "GKNNRPS", "CDR-L3": "SSRDSSKPQVF", "apparent Kd": "no signal", "replicates with signal": "0/3"}
{"CDR-L1": "EGDSLRPYYAN", "CDR-L2": "GKNNRPS", "CDR-L3": "SLRDSSGFQGF", "apparent Kd": "200 nM", "replicates with signal": "2/3"}
{"CDR-L1": "EGDSLRYYWAN", "CDR-L2": "NKNNRPS", "CDR-L3": "SSRDSSGFQFF", "apparent Kd": "no signal", "replicates with signal": "0/3"}
{"CDR-L1": "EGDSLRYYYAN", "CDR-L2": "IKENRPL", "CDR-L3": "SSRDSSGFQVF", "apparent Kd": "13 µM", "replicates with signal": "2/3"}
{"CDR-L1": "EGQSLRYYYAN", "CDR-L2": "GKNNRPS", "CDR-L3": "SIRDSSGFQVF", "apparent Kd": "4.3 µM", "replicates with signal": "2/3"}
{"CDR-L1": "EGDSLRYYYAN", "CDR-L2": "GKNNNPS", "CDR-L3": "FSRDSSFFQVF", "apparent Kd": "1.0 µM", "replicates with signal": "3/3"}
{"CDR-L1": "EGHSLRYYYAN", "CDR-L2": "GKWNCPS", "CDR-L3": "SSRDSSGFQVF", "apparent Kd": "43 µM", "replicates with signal": "1/3"}
{"CDR-L1": "EGFSLRYYCAN", "CDR-L2": "GKNNRPS", "CDR-L3": "SSRDSSGFQVD", "apparent Kd": "1.4 µM", "replicates with signal": "3/3"}
{"CDR-L1": "EGDLLRYYYAK", "CDR-L2": "GKNNRPS", "CDR-L3": "SSRDSLGFQVF", "apparent Kd": "1.8 µM", "replicates with signal": "1/3"}
{"CDR-L1": "EGDSLRYYYAN", "CDR-L2": "GKNNRPS", "CDR-L3": "SHRDSSVFMVF", "apparent Kd": "no signal", "replicates with signal": "0/3"}
{"CDR-L1": "EGDSLRYYTAN", "CDR-L2": "GKNNRPS", "CDR-L3": "SSRVSSGFQVV", "apparent Kd": "4.7 µM", "replicates with signal": "3/3"}
{"CDR-L1": "EGCSLPYLYAN", "CDR-L2": "GKNNRPS", "CDR-L3": "SSRDSSGFQVF", "apparent Kd": "5.2 µM", "replicates with signal": "1/3"}
{"CDR-L1": "EGDSLRYYYAR", "CDR-L2": "GKNNRPS", "CDR-L3": "SSRDSSGFMTF", "apparent Kd": "410 nM", "replicates with signal": "3/3"}
{"CDR-L1": "EGDSLRYYYAN", "CDR-L2": "GKNNRPL", "CDR-L3": "SSFDSSGFQVT", "apparent Kd": "210 µM", "replicates with signal": "2/3"}

Excerpt, the final 3 entries:

CDR-L1,CDR-L2,CDR-L3,apparent Kd,replicates with signal
EGCSLPYLYAN,GKNNRPS,SSRDSSGFQVF,5.2 µM,1/3
EGDSLRYYYAR,GKNNRPS,SSRDSSGFMTF,410 nM,3/3
EGDSLRYYYAN,GKNNRPL,SSFDSSGFQVT,210 µM,2/3

As a blank, each scFv also met three strains without target: over library AAYL52, 28% of these pairings were detected, typically at 8.2 µM and seldom below 800 nM.